Data as given in patent publication US20050130989A1, “N-arylheteroaromatic products compositions containing them and use thereof” (Aventis Pharma S. A., priority 2003, published 2005).

Amino acid sequences for entries named in this document (tags omitted).
UniProt P02550, whole entry: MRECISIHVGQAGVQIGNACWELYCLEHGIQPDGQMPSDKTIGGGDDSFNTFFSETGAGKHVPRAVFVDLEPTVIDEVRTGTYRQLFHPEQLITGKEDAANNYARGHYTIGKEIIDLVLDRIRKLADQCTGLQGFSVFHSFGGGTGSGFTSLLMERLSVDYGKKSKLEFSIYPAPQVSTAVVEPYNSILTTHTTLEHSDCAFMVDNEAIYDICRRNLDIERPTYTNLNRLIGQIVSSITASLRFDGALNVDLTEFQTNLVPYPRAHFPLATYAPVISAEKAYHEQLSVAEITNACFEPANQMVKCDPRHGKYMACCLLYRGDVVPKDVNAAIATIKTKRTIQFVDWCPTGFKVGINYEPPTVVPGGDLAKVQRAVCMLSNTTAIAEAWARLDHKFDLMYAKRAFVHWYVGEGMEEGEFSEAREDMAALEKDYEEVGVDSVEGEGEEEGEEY
UniProt P02554, whole entry: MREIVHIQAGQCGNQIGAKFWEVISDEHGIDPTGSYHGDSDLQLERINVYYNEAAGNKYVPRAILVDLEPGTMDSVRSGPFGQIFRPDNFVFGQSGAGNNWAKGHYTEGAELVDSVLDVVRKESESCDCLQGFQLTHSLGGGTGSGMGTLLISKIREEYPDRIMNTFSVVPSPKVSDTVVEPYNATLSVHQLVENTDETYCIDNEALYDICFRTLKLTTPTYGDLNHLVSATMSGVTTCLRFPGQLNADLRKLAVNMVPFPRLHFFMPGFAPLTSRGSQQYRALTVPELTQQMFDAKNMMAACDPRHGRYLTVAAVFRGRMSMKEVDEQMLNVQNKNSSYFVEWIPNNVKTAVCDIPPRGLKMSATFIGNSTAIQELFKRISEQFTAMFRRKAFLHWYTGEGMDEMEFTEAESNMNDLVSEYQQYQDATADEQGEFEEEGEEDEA

Assays:
tubulin = tubulin (Sus scrofa, UniProt P02550+P02554); test: Evaluation of the inhibition of tubulin polymerization (turbidimetry); details: read-out: Inhibition of tubulin polymerization IC 50 (μm); tubulin 10 μm (1 mg/ml), 37° C., turbidity at 350 nm; concentration that inhibits the rate of polymerization by 50%
Protocol: Tubulin is purified from pig brain according to published methods (Shelanski et al., 1973, Proc. Natl. Acad. Sci. USA, 70, 765-768. Weingarten et al., 1975, Proc. Natl. Acad. Sci. USA, 72, 1858-1862). Briefly, the brains are ground and centrifuged in an extraction buffer. The tubulin contained in the supernatant of the extract undergoes two successive cycles of polymerization at 37° C. and depolymerization at 4° C., before being separated from the MAPs (Microtubule Associated Proteins) by chromatography on a phosphocellulose P11 column (Whatman). The tubulin thus isolated is more than 95% pure. It is stored in a buffer known as RB/2 30% glycerol, the composition of which is 50 mM MES-NaOH [2-(N-morpholino)ethanesulfonic acid], pH 6.8; 0.25 mM MgCl2; 0.5 mM EGTA; 30% glycerol (v/v), 0.2 mM GTP (guanosine-5′-triphosphate).
The polymerization of tubulin to microtubules is monitored by turbidimetry as follows: the tubulin is adjusted to a concentration of 10 μm (1 mg/ml) in RB/2 30% glycerol buffer to which 1 mM GTP and 6 mM MgCl2 are added. The polymerization is triggered by an increase in temperature from 6° C. to 37° C. in a cuvette with an optical path length of 1 cm, placed in a UVIKON 931 spectrophotometer (Kontron) equipped with a thermostatically maintained cuvette holder. The increase in the turbidity of the solution is monitored at 350 nm.
The products are dissolved at 10 mM in DMSO and added at variable concentrations (0.5 to 10 μm) to the tubulin solution before polymerization. The IC50 value is defined as the concentration of product that inhibits the rate of polymerization by 50%. A product whose IC50 value is less than or equal to 25 μm is considered as being very active.

HCT116 cells = test: Inhibition of proliferation of the human colon tumor line HCT116 ([14C]-thymidine incorporation); details: read-out: Inhibition of HCT116 proliferation IC 50 (μm), 48 hours at 37° C.
Protocol: The proliferation of HCT116 cells is evaluated by measuring the incorporation of [^14C]-thymidine in the following manner. The HCT 116 cells (obtained from the ATCC) are cultured in a DMEM medium (Gibco) containing 10% fetal calf serum and antibiotics (1% penicillin, 1% streptomycin). To perform the proliferation test, the cells are inoculated in cytostar 96-well microplates (Amersham), at a rate of 5000 cells per well. [^14C]-thymidine (0.1 μCi/well) and the products to be evaluated are then added. Variable concentrations of products up to 10 μm are used; the DMSO (solvent used to dissolve the products) should not exceed 0.5% in the medium. 48 hours after incubation at 37° C., the radioactivity incorporated into the cells is measured by counting the plate in a TRI-LUX counter (Wallac). The IC50 is defined as the concentration of product that reduces the radioactivity by 50% compared with an untreated control. A product whose IC50 is less than 3 μm is considered cytotoxic.

Cc1cc(C(=O)N2CCN(c3ccc(Cl)c(C)c3)CC2)n(-c2ccccc2)n1
IC50 (tubulin): 1500 nM | IC50 (HCT116 cells): 39 nM

COC(=O)C(CO)NC(=O)c1cccc(N2CCN(C(=O)c3cc(C)nn3-c3ccccc3)CC2)c1 (stereo not drawn)
IC50 (tubulin): 5500 nM

CCOC(=O)NCc1cc(C(=O)N2CCN(c3cc(OC)cc(OC)c3)CC2)n(-c2ccccc2)n1
IC50 (tubulin): 1200 nM

Cc1cc(C(=O)N2CCN(c3cccc(OCc4ccccc4)c3)CC2)n(-c2ccccc2)n1
IC50 (tubulin): 6000 nM | IC50 (HCT116 cells): 560 nM

Cc1cccc(-n2nc(C)cc2C(=O)N2CCN(c3cccc4c3OCO4)CC2)c1
IC50 (tubulin): 420 nM | IC50 (HCT116 cells): 2.1 nM

C=CCOC(=O)NCc1cc(C(=O)N2CCN(c3cc(OC)cc(OC)c3)CC2)n(-c2ccccc2)n1
IC50 (tubulin): 900 nM
